# Apparent affinities of Ab-14 variants for a coronavirus HR2 peptide

Values reported by Li et al. 2023, doi:10.1038/s41467-023-39022-2 (FLAb copy).

Target peptide (SARS-CoV-2 spike, HR2 region): PDVDLGDISGINAS

Parent: Ab-14, a human scFv built as VH, a (GGGGS)3 linker, VL. Only the CDRs of the heavy chain vary.
VH: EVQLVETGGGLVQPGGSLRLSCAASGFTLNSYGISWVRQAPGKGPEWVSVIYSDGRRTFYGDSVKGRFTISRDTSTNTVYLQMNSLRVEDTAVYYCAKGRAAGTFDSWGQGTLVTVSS
VL: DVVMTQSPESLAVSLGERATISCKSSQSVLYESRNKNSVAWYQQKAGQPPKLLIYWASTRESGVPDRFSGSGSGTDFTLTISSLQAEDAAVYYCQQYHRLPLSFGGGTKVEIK

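The parent was found by panning a naive human phage display library on the peptide. This is the validation round: designs drawn from the data on random variants, tested in the same kind of assay. Their group label is 14H_GPLM_HC (GPLM: also part of the Gaussian process libraries; HC: hill climbing; a sequence that several methods proposed may carry one label only). Affinity was read by AlphaSeq, a pooled yeast mating assay with surface-displayed partners. Binding brings cells together so that they mate, and sequencing counts the barcode pairs among the diploids. Read counts were normalised to the haploid input and turned into Kd by a linear fit to BCL2-family pairs of known affinity, for each replicate. There are six technical replicates.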

Substitutions are numbered in sequence along the VH above, starting at 1 (not Kabat).
Values are log10 of the apparent Kd in nM; lower means stronger binding.
A mean of the replicates is given; it leaves out those without a signal.
An entry "ND" has no value in the source: the pair was not observed among the diploids in that replicate. This suggests poor binding but is not conclusive.

changes,"replicates, log10 nM","log10 Kd (nM), mean",signal with controls
G61V/R100Q/A101L/S107T,ND ND 1.65 ND 2.96 ND,2.30,0 of 18
S31D/G103V/S107Q,ND ND ND ND ND ND,ND,1 of 18 (1.08)
S31D/G61D/D106W,1.45 0.85 2.34 0.62 2.11 1.92,1.55,0 of 18
S31D/R56K/F59Q/G61S,1.04 1.05 1.50 0.73 1.28 1.44,1.17,3 of 18 (2.71)
S31E/G61M/A101Q,0.58 2.03 0.57 1.17 0.44 2.40,1.20,0 of 18
S31E/G61T/A101F/D106N,ND ND ND ND ND 1.09,1.09,0 of 18
S31E/G61S/R100K/T104F,ND ND ND ND ND ND,ND,0 of 18
R56H/G61D/R100Q/A101E,ND -0.81 0.96 -1.44 0.25 ND,-0.26,0 of 18
G61D/R100Q/A101L/S107F,ND ND ND ND ND ND,ND,0 of 18
S31D/R56K/F59W/G61I,ND ND ND ND ND ND,ND,0 of 18
S31Q/G61S/R100Q/A101E,-0.42 -0.26 -0.52 -0.54 -0.51 -0.29,-0.42,0 of 18
N30D/S31N/G61S,ND 0.47 0.67 0.99 -0.02 1.25,0.67,0 of 18
S31D/S53A/D106I,ND ND ND ND ND ND,ND,0 of 18
S31D/G61A/D106R,ND ND ND ND ND ND,ND,0 of 18
G61T/R100H/A101E,0.58 -0.27 -0.17 -0.50 -0.36 -0.35,-0.18,0 of 18
R56K/G61S/R100Q/S107A,0.19 0.13 0.26 0.20 0.51 0.21,0.25,1 of 18 (1.86)
A102G/G103V/S107Q,ND ND ND ND ND ND,ND,0 of 18
T28S/S31D/G103L/S107G,ND ND ND ND ND ND,ND,0 of 18
S31Q/R56K/G61S/A101T,-0.12 -0.52 -0.32 -0.29 -0.82 0.05,-0.34,0 of 18
S31D/F59Q/G61M,2.82 ND 1.63 1.30 1.86 1.86,1.89,1 of 18 (2.60)
T28H/S31Q/G61A,0.96 0.49 1.02 1.12 1.01 0.93,0.92,0 of 18
F59W/G61I/R100Q,ND ND ND ND ND ND,ND,0 of 18
S31D/G61A/D106K,ND ND ND ND ND ND,ND,0 of 18
S31D/G61I/A101Y,ND 0.37 ND ND ND ND,0.37,0 of 18
T28S/S31Q/G61S/T104M,1.50 2.32 1.72 2.53 2.73 1.72,2.09,0 of 18
S31D/G61A/S107T,0.43 -0.01 -0.42 -0.74 0.23 0.30,-0.03,0 of 18
S53A/S63D/R100K/D106K,ND ND ND ND ND ND,ND,0 of 18
T28S/S31E/G61M/A101Q,0.38 0.23 0.33 0.15 0.28 0.20,0.26,0 of 18
S31E/G61T/S107L,0.52 0.23 0.42 0.19 0.43 0.78,0.43,3 of 18 (2.79)
G61D/R100Q/A101L/S107N,0.95 1.01 0.65 0.79 0.76 0.92,0.85,1 of 18 (1.93)
R56Q/G61D/R100Q/A101L,0.77 ND ND 0.32 1.40 1.23,0.93,0 of 18
S31E/G61C/G103V/S107Q,ND ND ND ND ND ND,ND,0 of 18
N30E/G61S/R100Q/A102G,ND ND ND ND ND 1.76,1.76,0 of 18
G61S/R100F,1.25 1.06 0.33 0.68 1.26 1.46,1.01,0 of 18
S31E/G61T/A101S/D106S,1.60 2.44 1.60 2.14 1.90 2.16,1.97,0 of 18
G61D/R100Q/A101T/T104M,ND ND ND ND ND ND,ND,0 of 18
T28S/S31D/F59A,0.11 0.14 -0.04 0.24 -0.11 0.29,0.10,1 of 18 (2.40)
T28D/G61S/R100W,0.48 0.46 0.35 0.63 0.21 0.82,0.49,0 of 18
T28D/R56Q/G61V/R100K,0.94 1.86 1.58 1.35 1.71 1.13,1.43,1 of 18 (2.71)
S31E/G61T/R100L/A101F,-0.15 0.38 -0.49 -0.70 -0.85 -0.37,-0.36,0 of 18

The authors averaged sequences with at least three values out of six and counted those with two or fewer as poor binders.
A sequence measured in both rounds can read differently, since the two assays cover different ranges.
The parent sequence was in this pool as ten entries: three were never detected, three once, and four in most replicates, with averages from 0.34 to 2.37.
Empty control strains, which show no peptide, gave a signal in 1% of pairings with all heavy chain designs; the median was 2.08 and 95% of these signals were weaker than 0.84. No background was subtracted. Also given: how often the same scFv was detected with the empty control strains, with their mean in brackets.